Assay: in vivo
Details: male, Swiss, mouse, kidney, po, 8 mg/kg

## Cc1cc2c(s1)Nc1ccccc1N=C2N1CCN(C)CC1 [olanzapine, Olanzapine]
  concentration at 2 h: 41100 ng/g
